Measured values taken from article PMC5297516 (mAbs, 2016).

Molecular target: HER2 extracellular domain (ECD) (Homo sapiens, UniProt P04626)
Assay: SPR

B1: anti-HER2 IgG1 variant VH Q39E CH1 S183K / VL Q38K CL V133E (antibody, V domains shown)
VH: [about 120 residues omitted here]
VL: DIQMTQSPSSLSASVGDRVTITCRASQDVNTAVAWYQKKPGKAPKLLIYSASFLESGVPSRFSGSRSGTDFTLTISSLQPEDFATYYCQQHYTTPPTFGQGTKVEIK
Kd: 0.75 nM

B2: anti-HER2 IgG1 variant VH Q39K CH1 S183E / VL Q38E CL V133K (antibody, V domains shown)
VH: [about 120 residues omitted here]
VL: DIQMTQSPSSLSASVGDRVTITCRASQDVNTAVAWYQEKPGKAPKLLIYSASFLESGVPSRFSGSRSGTDFTLTISSLQPEDFATYYCQQHYTTPPTFGQGTKVEIK
Kd: 0.46 nM
